Measurements taken from patent publication US20250276120A1, “METHOD FOR PREVENTING COAGULATION IN PATIENTS WITH IMPLANTED CARDIAC DEVICES” (Cadrenal Therapeutics, Inc., priority 2024, published 2025).

Settings: any CYP2C9 genotype

exposure in healthy subjects versus CKD subjects regardless of CYP2C9 genotype: similar
Structure (SMILES): CC(OC(=O)c1ccc(Cc2c(O)c3ccccc3oc2=O)cc1)(C(F)(F)F)C(F)(F)F [Tecarfarin, 1,1,1,3,3,3-hexafluoro-2-methyl-2-propanyl 4-[(4-hydroxy-2-oxo-2H-chromen-3-yl)methyl] benzoate]
